Our source for the Kr and Activity values is ChEMBL document CHEMBL3407396, “Discovery of non-oxime reactivators using an in silico pharmacophore model of reactivators for DFP-inhibited acetylcholinesterase” (2015).

Protein sequences, listed by entry. Tags and fused reporters are not part of them. Lines headed by an entry give the natural chain unless they say otherwise; changes in a name come on top.
UniProt O42275: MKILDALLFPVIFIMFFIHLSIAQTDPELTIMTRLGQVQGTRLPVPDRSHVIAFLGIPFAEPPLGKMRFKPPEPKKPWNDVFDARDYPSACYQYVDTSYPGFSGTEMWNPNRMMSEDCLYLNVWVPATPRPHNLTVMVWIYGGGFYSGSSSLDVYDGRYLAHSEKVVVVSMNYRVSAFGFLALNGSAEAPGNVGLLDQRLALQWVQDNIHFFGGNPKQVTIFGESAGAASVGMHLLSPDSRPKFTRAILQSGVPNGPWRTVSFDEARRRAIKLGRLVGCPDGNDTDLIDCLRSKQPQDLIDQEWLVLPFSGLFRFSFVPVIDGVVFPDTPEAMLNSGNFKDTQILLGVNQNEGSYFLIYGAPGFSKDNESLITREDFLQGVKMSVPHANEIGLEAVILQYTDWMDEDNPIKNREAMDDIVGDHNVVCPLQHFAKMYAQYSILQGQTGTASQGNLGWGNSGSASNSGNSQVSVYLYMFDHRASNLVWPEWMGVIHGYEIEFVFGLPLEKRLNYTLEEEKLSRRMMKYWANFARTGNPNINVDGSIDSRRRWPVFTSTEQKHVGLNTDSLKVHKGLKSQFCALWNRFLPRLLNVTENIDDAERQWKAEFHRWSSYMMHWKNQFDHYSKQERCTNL

Assay [1] has as its target Acetylcholinesterase (Electrophorus electricus) (UniProt O42275). The assay can be described thus: Reactivation of diisopropylfluorophosphate-inhibited electric eel AChE using acetylcholine as substrate assessed as change in optical density per minute for 60 mins by UV-VIS spectrophotometry.
Assay [2] has the same target. As to the kind of experiment: Reactivation of diisopropylfluorophosphate-inhibited electric eel AChE using acetylcholine as substrate assessed as change in optical density per minute for 60 mins by UV-VIS spectrophotometry relative to pralidoxime. Also noted: scale not given: the % may be the effect or the level left.

`O=C1CC(NCC(SP(=O)(O)O)c2ccccc2)C(=O)N1` (stereo not given): in assay [1], the Kr was found to be 5.2 mmol/min. For the same compound, the Activity in assay [2] was 50.2%.
Taken in the same sequence, the figures for `NC(=O)CCNCCSC(=O)c1ccccc1` were 2.3 mmol/min and 114%.
With `COc1cc(NCCCCN)c2nccc(C)c2c1`, the Kr in assay [1] was 10.1 mmol/min. Further, the Activity in assay [2] is 25.8%.
As to `C[n+]1ccccc1C=NO`, the Kr in assay [1] stood at 2.61 mmol/min.
Take `O=[N+]([O-])c1ccc(OS(=O)(=O)c2ccccc2)c(Cl)c1`: the Kr in assay [1] worked out at 9.3 mmol/min. In assay [2], the Activity is 28.1%.
As to `CS(=O)(=O)SCCOC(=O)Nc1ccccc1`, the Kr in assay [1] worked out at 4.6 mmol/min. Also, the Activity in assay [2] was 56.7%.
For the compound `CC(=O)c1ccc(S(=O)(=O)c2ccccc2)cc1`, the Kr in assay [1] came to 12.5 mmol/min. Further, the Activity in assay [2] turned out to be 20.9%.
Taken in the same sequence, the figures for `O=[N+]([O-])c1ccc(NS(=O)(=O)c2ccc(Cl)cc2)cc1` were 10.6 mmol/min and 24.6%.
For `O=C(O)CN(CCc1ccccc1)CCN(CC(=O)O)CC(=O)O`, in assay [1], the Kr came to 13.6 mmol/min. In assay [2], the Activity is 19.2%.
As to `CC(=O)NC1=C(NCCO)C(=O)c2ccccc2C1=O`, the Kr in assay [1] was 12.1 mmol/min. The Activity in assay [2] worked out at 21.6%.
With `COc1ccc(C(=O)CSS(=O)(=O)c2ccccc2)cc1`, the Kr in assay [1] came out at 5.2 mmol/min. In assay [2], the Activity worked out at 50.2%.
Turning to `Nc1ccc(S(=O)(=O)NCC(O)CO)cc1` (stereo not given), the Kr in assay [1] stood at 12.5 mmol/min. In addition, the Activity in assay [2] turned out to be 20.9%.
In the case of `O=C1OCCN1CCCN1C(=O)c2ccccc2C1=O`, in assay [1], the Kr came out at 8.8 mmol/min. Also, the Activity in assay [2] was 29.7%.
